In US20240139185A1, “COMPOUNDS THAT PARTICIPATE IN COOPERATIVE BINDING AND USES THEREOF” (Revolution Medicines, Inc., priority 2018, published 2024):

Key:
[1] = molecular target: cyclophilin A (CYPA) (Homo sapiens, UniProt P62937); experiment: CYPA-compound binary complex formation by SPR; settings: read-out: CYPA Binding Affinity
How it was run: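 CypA-Avi captured on a Biotin CAPture chip (4 μg/ml), reference flow cell subtracted. Compounds injected as 10-point 2-fold dilutions from 50 μM in HBS-P+ pH7.4 with 2% DMSO; 60 s association and 60 s dissociation, solvent-corrected. Affinity obtained by steady-state fitting.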

[2] = molecular target: BRAF-GTP-KRAS-G12C complex (Homo sapiens, UniProt P01116+P62937, G12C); experiment: KRAS-BRAF complex disruption through competition with CYPA-compound by TR-FRET; settings: read-out: BRAF-GTP-KRAS-G12C Disruption; biochemical BRAF-KRAS G12C-GTP disruption assay EC50, with CYPA
How it was run: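 His6-KRAS G12C-GTP (1-169, 50 nM) with tagless CypA (1-165, 500 nM) was incubated with compound for 3 h at room temperature in pH 7.3 Hepes/NaCl/MgCl2 buffer containing GST-BRAF RBD. Anti-His Eu (10 nM) and anti-GST APC (50 nM) were then added for 1.5 h, and the 665/615 nm TR-FRET ratio was read. EC50 from 4-parameter fit; for specificity, wild-type KRAS replaced G12C, and CypA was omitted to test presenter dependence.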

[3] = tested on: pERK in H358 cells; experiment: pERK inhibition in H358 cells; settings: read-out: Cellular pERK inhibition, 4 hours treatment
How it was run: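 Human lung cancer H358 cells in RPMI/10% FBS were exposed to compound or DMSO for 4 h. Fixed and permeabilized cells were stained overnight at 4 C with anti-phospho-ERK1/2 (Thr202/Tyr204). Near-infrared imaging read the pERK signal at 800 nm, with DRAQ5 at 700 nm.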

Molecule Cc1nc2ccc3cc2n1CC(C)(C)COC(=O)[C@@H]1CCCN(N1)C(=O)[C@@H](NC(=O)[C@H](C(C)C)N(C)C(=O)CC1CC=CC1=O)Cc1cc(O)cc-3c1 (single isomer, unassigned) has a Kd [1] greater than 15 µM, an EC50 [2] of less than 0.5 µM and an IC50 [3] greater than 10 µM.
CC(C)[C@@H](C(=O)N[C@H]1Cc2cc(O)cc(c2)-c2ccc3c(-c4ccc5scnc5c4)cn(c3c2)CC(C)(C)COC(=O)[C@@H]2CCCN(N2)C1=O)N(C)C(=O)C1CN(C(=O)CCl)C1 was tested, and the Kd [1] was less than 5 µM, the EC50 [2] was less than 0.5 µM and the IC50 [3] was 1 to 10 µM.
With CC#CC(=O)N1CCC[C@H](C(=O)N(C)[C@H](C(=O)N[C@H]2Cc3cc(O)cc(c3)-c3ccc4c(C(C)(C)C#N)cn(c4c3)CC(C)(C)COC(=O)[C@@H]3CCCN(N3)C2=O)C(C)C)C1 the Kd [1] was less than 5 µM, the EC50 [2] was greater than 5 µM and the IC50 [3] was greater than 10 µM.
With CC(C)[C@@H](C(=O)N[C@H]1Cc2cc(O)cc(c2)-c2ccc3c(C(C)(C)C(C)O)cn(c3c2)C[C@H](C)COC(=O)[C@@H]2CCCN(N2)C1=O)N(C)C(=O)C1CN(C(=O)CCl)C1 (stereo partly drawn) the Kd [1] was less than 5 µM, the EC50 [2] was less than 0.5 µM and the IC50 [3] was 1 to 10 µM.
Molecule CC(C)[C@@H](C(=O)N[C@H]1Cc2cc(O)cc(c2)-c2ccc3c(C(C)(C)C#N)cn(c3c2)CC(F)COC(=O)[C@@H]2CCCN(N2)C1=O)N(C)C(=O)C1CN(C(=O)CCl)C1 (single isomer, unassigned) has a Kd [1] of 5 to 15 µM, an EC50 [2] of 0.5 to 5 µM and an IC50 [3] greater than 10 µM.
C=CC(=O)N1CC[C@H](C(=O)N(C)[C@H](C(=O)N[C@H]2Cc3cc(O)cc(c3)-c3ccc4c(c3)c(cn4C(C)(C)C#N)CC(C)(C)COC(=O)[C@@H]3CCCN(N3)C2=O)C(C)C)C1 was tested, and the Kd [1] was greater than 15 µM, the EC50 [2] was 0.5 to 5 µM and the IC50 [3] was 1 to 10 µM.
C=CS(=O)(=O)N1CC(C(=O)N(C)[C@H](C(=O)N[C@H]2Cc3cc(O)cc(c3)-c3ccc4nc(C)n(c4c3)CC(C)(C)COC(=O)[C@@H]3CCCN(N3)C2=O)C(C)C)C1 showed a Kd [1] of 5 to 15 µM, an EC50 [2] of less than 0.5 µM and an IC50 [3] greater than 10 µM.
Molecule CCC1COC(=O)[C@@H]2CCCN(N2)C(=O)[C@@H](NC(=O)[C@H](C(C)C)N(C)C(=O)C2CN(C(=O)CCl)C2)Cc2cc(O)cc(c2)-c2ccc3c(C#N)cn(c3c2)C1 (stereo partly drawn) has a Kd [1] of less than 5 µM, an EC50 [2] of less than 0.5 µM and an IC50 [3] of 1 to 10 µM.
CC(C)[C@@H](C(=O)N[C@H]1Cc2cc(O)cc(c2)-c2ccc3c4c(C#N)cccc4n(c3c2)CC(C)(C)COC(=O)[C@@H]2CCCN(N2)C1=O)N(C)C(=O)C1CN(C(=O)CCl)C1 gave a Kd [1] greater than 15 µM, an EC50 [2] of less than 0.5 µM and an IC50 [3] of 1 to 10 µM.
C=CC(=O)N1CC[C@H](C(=O)N(C)[C@H](C(=O)N[C@H]2Cc3cc(O)cc(c3)-c3ccc4cc(-c5cccc6c5OC(F)(F)O6)n(c4c3)C[C@H](C)COC(=O)[C@@H]3CCCN(N3)C2=O)C(C)C)C1 was tested, and the Kd [1] was greater than 15 µM, the EC50 [2] was greater than 5 µM and the IC50 [3] was greater than 10 µM.
Molecule CC1COC(=O)[C@@H]2CCCN(N2)C(=O)[C@@H](NC(=O)[C@H](C(C)C)N(C)C(=O)C2CN(C(=O)CCl)C2)Cc2cc(O)cc(c2)-c2ccc3c(c2)c(cn3C(C)(C)C#N)C1 (stereo partly drawn) has a Kd [1] of 5 to 15 µM, an EC50 [2] of less than 0.5 µM and an IC50 [3] of less than 1 µM.
CC(C)[C@@H](C(=O)N[C@H]1Cc2cc(O)cc(c2)-c2ccc3c(C4(C#N)CCCC4)cn(c3c2)C[C@H](C)COC(=O)[C@@H]2CCCN(N2)C1=O)N(C)C(=O)C1CN(C(=O)CCl)C1 gave a Kd [1] of 5 to 15 µM, an EC50 [2] of less than 0.5 µM and an IC50 [3] of less than 1 µM.
CC(C)[C@@H](C(=O)N[C@H]1Cc2cc(O)cc(c2)-c2ccc3c(C(C)(C)C#N)cn(c3c2)CC(C)(C)COC(=O)[C@@H]2CCCN(N2)C1=O)N(C)C(=O)[C@@H]1CCN(C(=O)[C@@H](C)Cl)C1 showed a Kd [1] of less than 5 µM, an EC50 [2] of 0.5 to 5 µM and an IC50 [3] greater than 10 µM.
CC(C)[C@@H](C(=O)N[C@H]1Cc2cc(O)cc(c2)-c2ccc3c(C(C)(C)C#N)cn(c3c2)C[C@H](C)COC(=O)[C@@H]2CCCN(N2)C1=O)N(C)C(=O)C1CN(C(=O)[C@@H](C)Cl)C1 was tested, and the Kd [1] was less than 5 µM, the EC50 [2] was 0.5 to 5 µM and the IC50 [3] was greater than 10 µM.
For CC(C)[C@@H](C(=O)N[C@H]1Cc2cc(O)cc(c2)-c2ccc3c(c2)c(cn3C(C)(C)C#N)CC(C)(C)COC(=O)[C@@H]2CCCN(N2)C1=O)N(C)C(=O)[C@H]1CCN(C(=O)[C@@H](C)Cl)C1, the Kd [1] was less than 5 µM, the EC50 [2] was 0.5 to 5 µM and the IC50 [3] was 1 to 10 µM.
